Results as given in ChEMBL document CHEMBL5034000, “Novel Bisubstrate Inhibitors for Protein N-Terminal Acetyltransferase D” (J Med Chem, 2021).

What was measured:
Homo sapiens [1] = species on record: Homo sapiens; assay: Selectivity ratio of inhibition of human NatB to inhibition of human NatD
Homo sapiens [2] = species on record: Homo sapiens; assay: Selectivity ratio of inhibition of human NatE to inhibition of human NatD
Homo sapiens [3] = species on record: Homo sapiens; assay: Selectivity ratio of inhibition of human PCAF to inhibition of human NatD

Measured: Selectivity ratio

CC(C)(COP(=O)(O)OP(=O)(O)OC[C@H]1O[C@@H](n2cnc3c(N)ncnc32)[C@H](OP(=O)(O)O)[C@@H]1O)C(O)C(=O)NCCC(=O)NCCSCCC(=O)N[C@@H](CO)C(=O)NCC(=O)N[C@@H](CCCNC(=N)N)C(=O)NCC(=O)N[C@@H](CCCCN)C(N)=O (stereo partly drawn)
10000: all assays above
